Values quoted from earlier work in PMC7383964 (Chemmedchem, 2020).

Sequences of proteins named here, by UniProt entry; tags and fusion partners are left off.
UniProt P35372, whole entry: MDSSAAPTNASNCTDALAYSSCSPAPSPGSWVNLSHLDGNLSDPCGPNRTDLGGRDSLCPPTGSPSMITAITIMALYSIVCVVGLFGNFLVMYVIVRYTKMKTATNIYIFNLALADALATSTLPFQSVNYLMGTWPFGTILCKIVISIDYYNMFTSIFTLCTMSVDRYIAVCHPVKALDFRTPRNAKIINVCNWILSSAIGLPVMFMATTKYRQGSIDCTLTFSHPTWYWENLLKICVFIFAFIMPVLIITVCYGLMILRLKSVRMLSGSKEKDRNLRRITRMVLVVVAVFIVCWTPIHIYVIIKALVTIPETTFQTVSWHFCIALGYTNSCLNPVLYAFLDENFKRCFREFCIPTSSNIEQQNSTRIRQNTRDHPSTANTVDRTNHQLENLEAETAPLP

Key:
[1] = tested on: κ‐OR; conditions: read-out: K i κ; cited from earlier work
[2] = molecular target: μ‐OR (Homo sapiens, UniProt P35372); conditions: read-out: K i μ; cited from earlier work
[3] = tested on: δ‐OR; conditions: read-out: K i δ; cited from earlier work

COC12CCC3(CC1C(C)(O)CC(C)(C)c1ccccc1)C1Cc4ccc(O)c5c4C3(CCN1CC1CC1)C2O5 (stereo not drawn)
Ki [1]: 4.15 nM
Ki [2]: 2.19 nM
Ki [3]: 3.66 nM
